Laboratory results as given in PubChem BioAssay AID602296 (Broad Institute, 2012).
Inconclusive results are not listed. The source made the active and inactive calls.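 Rule for the calls: active = fitted activation curve crossing 40% at a concentration no higher than the sample's top valid tested dose; inconclusive = flat fitted curve at 30% to 70% activation, or poor curve fit; inactive = signal decrease, flat curve within 30%, or the rest.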

System: NIH3T3-HGL HSF-1 response element luciferase, 48 h
Assay: sustained heat shock response element induction – cell-based, mouse, luciferase, cherry-pick, dose, confirmation (AID 602296);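 note: test compounds applied by themselves with no MG132 co-treatment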

COc1ccc(OP(C)(=O)Nc2ccccc2Br)cc1 (stereo unspecified)
AC40: inactive: > 26 µM
